Antibody variant affinities, Ab-95 light chain, assay 2

Antigen: PDVDLGDISGINAS, a 14-residue peptide of the SARS-CoV-2 spike HR2 region.

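The parent was found by panning a naive human phage display library on the peptide. In library AAYL52, one, two or three CDR residues were substituted; doubles and triples were drawn at random. AlphaSeq pools MATa yeast showing the antibodies with MATalpha yeast showing the peptide. Binding brings cells together so that they mate, and sequencing counts the barcode pairs among the diploids. Scores were corrected for input abundance and mapped to Kd with protein pairs of known affinity run in the same pool. The assay was run in three technical replicates.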

Parent: Ab-95, a human scFv built as VH, the linker GGGGSGGGGSGGGGS, VL. Only the CDRs of the light chain vary.
VH: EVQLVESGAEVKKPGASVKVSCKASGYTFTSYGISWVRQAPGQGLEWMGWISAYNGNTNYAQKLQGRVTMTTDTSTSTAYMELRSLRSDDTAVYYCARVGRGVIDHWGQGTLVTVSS
VL: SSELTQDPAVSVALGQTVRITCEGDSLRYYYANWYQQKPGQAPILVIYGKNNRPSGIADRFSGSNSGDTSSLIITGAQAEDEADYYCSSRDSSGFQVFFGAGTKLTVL

Positions count from residue 1 of the parent VL; A32K puts K in place of A.
All variants listed here change F95 of the VL, counted from its first residue.
Values are apparent Kd, the geometric mean of the replicates that gave a signal; lower means stronger binding.
A pair that was not seen in any replicate is written "nd"; this usually means weak binding, but a binder can also be missed.
Three control strains display no target. For library AAYL52, 28% of the pairings with them gave a signal, with a median of 8.2 µM and one signal in twenty below 800 nM, so weak values seen in few replicates may be background.

Variant A32K+G94E+F95H gave 4.0 µM (3 of 3 replicates). With L27V+K50S+F95D the result was 66 µM (1 of 3 replicates). With Y30A+R53L+F95N the result was 96 nM (3 of 3 replicates). With S92L+G94S+F95L the result was nd (0 of 3 replicates). Variant D25I+L27K+F95R showed 1.8 µM (3 of 3 replicates). With D25T+G49D+F95A the result was 300 nM (3 of 3 replicates). Variant Y29Q+S93P+F95Y showed 440 nM (3 of 3 replicates). Variant D25A+N52P+F95E showed 2.1 µM (3 of 3 replicates). With S55C+S93G+F95R the result was 1.0 µM (3 of 3 replicates).

With R28H+F95W+V97N the result was 22 µM (2 of 3 replicates). With Y30F+F95G+F98Q the result was 230 nM (3 of 3 replicates). For Y31D+S88H+F95M, the assay gave 12 µM (2 of 3 replicates). With G24S+Y30L+F95G the result was 5.7 µM (3 of 3 replicates). Variant S26V+N52K+F95C gave 3.4 µM (1 of 3 replicates). Variant S88Q+G94W+F95V gave 650 nM (3 of 3 replicates). For E23V+S93E+F95Y, the assay gave 450 nM (3 of 3 replicates). For S89E+F95L+V97M, the assay gave 19 µM (2 of 3 replicates). Variant Y30E+F95N+V97W showed 57 nM (3 of 3 replicates).

Variant N33S+S55M+F95Q gave 17 µM (3 of 3 replicates). Variant L27F+S88K+F95I gave 2.3 µM (3 of 3 replicates). Variant Y31S+N33H+F95Q gave 39 µM (1 of 3 replicates). With S26V+S89E+F95N the result was 860 nM (3 of 3 replicates). With G49R+F95P+Q96L the result was 12 µM (1 of 3 replicates). Variant Y30S+N51Q+F95G showed 230 nM (3 of 3 replicates). Variant S26L+G94A+F95R gave 56 µM (1 of 3 replicates). For L27M+A32V+F95E, the assay gave 1.5 µM (3 of 3 replicates). With S55T+R90S+F95Y the result was 3.8 µM (3 of 3 replicates).

With G24M+S88R+F95Y the result was nd (0 of 3 replicates). With Y31G+S92K+F95C the result was 42 nM (3 of 3 replicates). For S88K+S92H+F95N, the assay gave 930 nM (3 of 3 replicates). With D25E+K50W+F95S the result was 1.8 µM (3 of 3 replicates). Variant R28E+D91T+F95D gave 1.1 µM (3 of 3 replicates). Variant Y31E+P54V+F95M gave 40 nM (3 of 3 replicates). Variant E23H+L27F+F95L gave 5.6 µM (2 of 3 replicates). Variant R53C+G94P+F95H showed 960 µM (2 of 3 replicates). With G49W+F95E+V97R the result was 30 µM (2 of 3 replicates).

With G49D+F95C+F98R the result was 4.4 µM (3 of 3 replicates). Variant K50I+F95Q+F98S showed 560 nM (3 of 3 replicates). Variant S88I+G94C+F95T gave 690 nM (3 of 3 replicates).

Picked from the list: the 3 lowest averages where every replicate gave a value.

changes	Kd (apparent)	seen in
Y31E+P54V+F95M	40 nM	3/3
Y31G+S92K+F95C	42 nM	3/3
Y30E+F95N+V97W	57 nM	3/3

Reference: Engelhart et al. 2022, doi:10.1038/s41597-022-01779-4. File: FLAb, binding data.